Active and inactive are the calls of the source.
What was measured:
Assay type in all cases: functional, organism-based
Conditions in all cases: route ip, time 25.0 hrs
[1] = tested on: Mus musculus; assay: Anti-inflammatory activity in MSU-induced acute gouty arthritis ICR mouse model assessed as decrease in NLRP3 level in joints pretreated intraperitoneally 60 mins prior to MSU administration and measured for 24 hrs post-MSU administration by IHC staining based analysis
[2] = tested on: Mus musculus; assay: Anti-inflammatory activity in MSU-induced acute gouty arthritis ICR mouse model assessed as decrease in redness of paw pretreated intraperitoneally 60 mins prior to MSU administration and measured for 24 hrs post-MSU administration
[3] = tested on: Mus musculus; assay: Anti-inflammatory activity in MSU-induced acute gouty arthritis ICR mouse model assessed as decrease in inflammatory cell infiltration in foot pretreated intraperitoneally 60 mins prior to MSU administration and measured for 24 hrs post-MSU administration by H and E staining based analysis

Measured: Activity

O=C(O)c1cc(-c2ccc(C3CCNCC3)cc2)c2ccc(-c3ccc(C(F)(F)F)cc3)cc2c1
active: all assays above

From ChEMBL document CHEMBL5512695, “Discovery of N-Substituted Acetamide Derivatives as Promising P2Y14R Antagonists Using Molecular Hybridization Based on Crystallographic Overlay” (J Med Chem, 2024)
